Our source for the Activity and inhibition values is ChEMBL document CHEMBL2321744 (J Med Chem, 2013).

Chains of the proteins cited; added tags and fusions are not shown. Lines headed by an entry give the natural chain unless they say otherwise; changes in a name come on top.
UniProt P35372, whole entry, looked up: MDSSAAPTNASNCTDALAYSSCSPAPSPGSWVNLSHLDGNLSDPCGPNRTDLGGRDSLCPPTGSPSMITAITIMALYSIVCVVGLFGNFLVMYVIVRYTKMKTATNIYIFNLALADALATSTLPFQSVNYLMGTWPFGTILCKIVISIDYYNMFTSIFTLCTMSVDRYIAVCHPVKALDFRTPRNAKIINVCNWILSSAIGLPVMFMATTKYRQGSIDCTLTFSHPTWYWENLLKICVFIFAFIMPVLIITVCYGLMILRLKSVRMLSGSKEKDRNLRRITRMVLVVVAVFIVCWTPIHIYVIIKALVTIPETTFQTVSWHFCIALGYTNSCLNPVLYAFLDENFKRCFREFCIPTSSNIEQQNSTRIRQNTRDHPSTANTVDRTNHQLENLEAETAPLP
UniProt P41145: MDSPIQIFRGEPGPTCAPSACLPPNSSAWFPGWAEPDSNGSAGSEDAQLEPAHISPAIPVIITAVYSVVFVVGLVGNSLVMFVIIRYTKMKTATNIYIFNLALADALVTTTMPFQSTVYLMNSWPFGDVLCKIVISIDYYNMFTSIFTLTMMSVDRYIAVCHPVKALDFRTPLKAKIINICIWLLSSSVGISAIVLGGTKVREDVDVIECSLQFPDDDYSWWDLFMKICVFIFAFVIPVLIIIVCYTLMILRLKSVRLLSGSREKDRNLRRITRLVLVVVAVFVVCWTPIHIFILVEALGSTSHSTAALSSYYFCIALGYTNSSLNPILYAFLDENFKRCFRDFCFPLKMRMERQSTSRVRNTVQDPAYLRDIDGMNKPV

Molecules are shown by their SMILES. Activity calls are given as the source filed them. The rule behind the calls is not given here.

Experiment [1] has as its target Mu-type opioid receptor (Homo sapiens) (UniProt P35372). Kind of experiment: Agonist activity at human MOP receptor.
Experiment [2] has as its target Kappa-type opioid receptor (Homo sapiens) (UniProt P41145). The experiment can be described thus: Agonist activity at human KOP receptor.
The target of experiment [3] is Mu-type opioid receptor (Homo sapiens) (UniProt P35372). The experiment can be described thus: Inhibition of human MOP receptor at 10 uM by radioligand binding assay.
Experiment [4] has as its target Kappa-type opioid receptor (Homo sapiens) (UniProt P41145). Kind of experiment: Inhibition of human KOP receptor at 10 uM by radioligand binding assay.

For `O=C(NCCN1CCC2(CC1)C(=O)NCN2c1cccc(F)c1)c1ccc(F)c(F)c1`, the outcome in experiment [1] and in experiment [2] was inactive.

For `Cc1cccc(N2CNC(=O)C23CCN(C[C@H](C)NC(=O)c2ccc(Br)cc2)CC3)c1`, the result in experiment [1] and in experiment [2] was inactive. Further, the inhibition in experiment [3] and in experiment [4] was over 50% each time.

For orientation: inhibition means the change of the read-out against control, counted positive when it falls. A low value points to a response near the control.
